The list shows a part of the results, in another mix than the full data. Activity calls are given as the source filed them. The calls were made as follows: active = max response of -50% or lower; inconclusive = between -30% and -50%; inactive = -30% or higher.
Each compound was assayed against Phosphatidylinositol 5-phosphate 4-kinase type-2 alpha (Homo sapiens) (UniProt P48426) (assay: qHTS for Inhibitors of phosphatidylinositol 5-phosphate 4-kinase (PI5P4K)). Settings: PI5P4Kalpha enzyme, ADP-Glo luminescence, 60 min; hits give low values.
Outline: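 Human PI5P4Kalpha with substrate in 0.038 M HEPES pH 7.4, 0.28 mM EGTA, 0.1% CHAPS, 5% DMSO; reaction started with 5 microM ATP (final), 60 min at room temperature. ADP formed read by ADP-Glo luminescence.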
% is scaled to controls: 0 for no effect and ±100 for the full control effect.
Also: value at the top dose of about 77 µM.

Protein sequences, listed by entry. Tags and fused reporters are not part of them. Lines headed by an entry give the natural chain unless they say otherwise; changes in a name come on top.
UniProt P48426: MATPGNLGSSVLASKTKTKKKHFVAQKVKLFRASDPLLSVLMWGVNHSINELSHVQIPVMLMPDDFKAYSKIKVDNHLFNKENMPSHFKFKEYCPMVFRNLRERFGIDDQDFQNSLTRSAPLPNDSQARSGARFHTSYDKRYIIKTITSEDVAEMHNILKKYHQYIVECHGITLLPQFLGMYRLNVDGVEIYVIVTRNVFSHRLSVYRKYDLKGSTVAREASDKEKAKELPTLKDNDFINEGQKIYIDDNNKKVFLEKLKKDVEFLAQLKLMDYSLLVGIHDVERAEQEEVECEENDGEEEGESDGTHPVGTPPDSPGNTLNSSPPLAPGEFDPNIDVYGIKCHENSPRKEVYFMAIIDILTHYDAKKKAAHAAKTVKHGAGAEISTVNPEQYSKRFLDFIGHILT

SMILES	max response
CC(=O)NC(SC(=S)N(CC(C)C)CC(C)C)C(Cl)(Cl)Cl (stereo not drawn)	inactive: 3.48%
Cc1ccc(OP(=O)(Nc2ccccn2)Oc2ccc(C)cc2)cc1	inactive: 13.9%
O=P1(N(CCCl)CCCl)OCCC2CCCCN21 (stereo not drawn)	inactive: 2.41%
c1ccc(-c2nn[nH]n2)c(-c2nn[nH]n2)c1	inactive: 4.35%
Cc1ccc(NP(=O)(Oc2cccc(C)c2)Oc2cccc(C)c2)nc1	inactive: 4.8%
O=C(NC1CCS(=O)(=O)C1)NP(=S)(Oc1ccccc1)Oc1ccccc1 (stereo not drawn)	inactive: 13.9%
CCNC(=S)/N=C(\N)N[N+](=O)[O-]	inactive: 0.979%
Nc1ccc([As](=O)(O)c2ccc([N+](=O)[O-])cc2)cc1	inactive: 1.91%
C(Cc1nn[nH]n1)Cc1nn[nH]n1	inactive: -15.6%
O=[As](O)(c1ccccc1)c1ccc(O)cc1	inactive: 7.91%
CC(=O)NC(SC(=S)N(C)C)C(Cl)(Cl)Cl (stereo not drawn)	inactive: -1.33%
O=[N+]([O-])c1ncn(CCn2cnc([N+](=O)[O-])n2)n1	inactive: 2.51%
O=[N+]([O-])c1ccc(O)c(/C=N/Nc2ccc([N+](=O)[O-])cc2[N+](=O)[O-])c1	inactive: -5.9%
O=P(Nc1nc2ccccc2s1)(c1ccccc1)c1ccccc1	inactive: 0.32%
C[C@H]1OP(=O)(Oc2ccccc2)[C@H](O)[C@H](O)[C@H]1N=[N+]=[N-] (stereo partly drawn)	inactive: -0.338%
CN(C)C1(CNC(=O)c2ccc(Cl)c(S(N)(=O)=O)c2)CCCCC1	inactive: -4.4%
O=P(Nc1ccccn1)(c1ccc(Br)cc1)c1ccc(Br)cc1	inactive: -2.95%
Nc1ccc(CCCCOc2ccccc2)cc1	inactive: -7.01%
COc1ccc(N)c([N+](=O)[O-])c1[N+](=O)[O-]	inactive: -22%
c1nnnn1CCn1cnnn1	inactive: 1.39%
O=P(Nc1nccs1)(c1ccccc1)c1ccccc1	inactive: 5.4%
CC(C)C(=O)NC(Sc1ccccc1)C(Cl)(Cl)Cl (stereo not drawn)	inactive: 1.32%
CC1CCN(C(=O)Oc2c(Cl)cc(Cl)c3cccnc23)CC1	inactive: 1.39%
CC(C)=N/N=C(\N)N[N+](=O)[O-]	inactive: 4.5%
CC(C)c1nc(Nc2ccccc2)n(P(=O)(N(C)C)N(C)C)n1	inactive: 3.21%
CN(C)C(=O)OCCc1n(C)cc[n+]1C	inactive: -4.47%
CCN(/C(=N/P(=O)(N1CCOCC1)N1CCOCC1)N1CCOCC1)c1ccc(OC)cc1	inactive: 0.256%
Nc1ccc([As](=O)(O)c2ccc(N)cc2)cc1	inactive: -0.672%
